Results reported in US20250123282A1, “METHODS FOR EVALUATION AND TREATMENT OF TYROSINE KINASE INHIBITOR (TKI)-RESISTANT ACUTE MYELOID LEUKEMIA” (LOMA LINDA UNIVERSITY, priority 2021, published 2025).

System: MV4-11 cells
Assay: FACS time course of CD44+pBAD+ and Ki67+CD33+CD44+ populations in TKI-treated MV4-11
Assay type: cell-based, human
Conditions: MV4-11, 28 days after TKI treatment
Text: To follow the cell fate of TKI-treated MV4-11 and MOLM-14, culturing of blasts were continued by performing medium change every 2-3 days. […] The BAD protein is a pro-apoptotic member of the BCL-2 gene family, which is involved in initiating apoptosis. Dephosphorylated BAD is pro-apoptotic by binding BCL-2 and inactivating BCL-2, while phosphorylated BAD (pBAD) is anti-apoptotic by leaving BCL-2 free to inhibit BAX-triggered apoptosis.
Small Molecular Inhibitors and in vitro & ex vivo Treatment. […] The dose of 80 nM for the four TKIs was selected based on their dose-dependent cytotoxicity in previous reports. […]
Flow Cytometry (FACS). […] About 1×10^4˜10^6 cells in 100 μl FACS buffer (PBS containing 1% FBS and 0.05% sodium azide) were stained with various fluorescence-conjugated antibodies specific for the desired cell surface proteins at 4° C. for 30 min. The surface-stained cells were then fixed and permeabilized using the appropriate reagents (e.g. the BD Pharmingen Cytofix/Cytoperm buffer) and stained with different fluorescence-conjugated antibodies specific for the desired intracellular proteins at 4° C. for 2 hours in the permeabilizing buffer (e.g. the BD Perm/Wash buffer). […] Finally, the cells were washed twice in the permeabilizing buffer and twice in the FACS buffer before being analyzed on the BD FACSAria II. […]

Q: With `CNC(=O)c1cc(Oc2ccc(NC(=O)Nc3ccc(Cl)c(C(F)(F)F)c3)cc2)ccn1` [SORA, Sorafenib] as the molecule, how does the “population of viable CD44+pBAD+ cells” value read?
A: 1.05%
